Data on one substance can be found in US6932973B2, “Peptides which stimulate the expression of the cytokines of inflammation and promote tissue regeneration” (Centre National de la Recherche Scientifique—CNRS, priority 1999, dated 2005).

For the test, the system named is human mononucleated cells of the peripheral blood (PBMCs). Briefly: Incorporation of tritiated thymidine in PBMCs (proliferation). The format is cell-based. Conditions: IL-2 at 50 IU/ml, internal control. On the procedure: The PBMCs were cultured for 7 days in RPMI culture medium containing 10% fetal calf serum in the absence of or in the presence of 1 ng/ml HARP protein or 1 μg/ml of peptides 1 or 2. The incorporation of tritiated thymidine was determined as described above.
Human mononucleated cells originating from different healthy donors were isolated from peripheral blood after centrifugation on a Ficoll-Hypaque pad (Pharmacia Biotech) in accordance with the manufacturer's instructions. The cells were washed then cultured in RPMI 1640 medium supplemented by 10% heat-inactivated fetal calf serum (56° C., 30 min), 100 units/ml of penicillin and 100 μg/ml of streptomycin. The cells were inoculated at the rate of 10^6 cells per ml in a 96-well (round bottoms) culture plate (Costar). They were cultured for 7 days in the presence or not of human recombinant HARP protein produced in E. coli at the concentration of 100 ng/ml. In the last 18 hours of culture, 1 μCi of tritiated thymidine was added to each of the wells. The radioactivity incorporated in the cell nuclei was then measured using a scintillation counter.

Regarding “IL-2: interleukin-2 at 50 IU/ml, internal control of stimulation [reference compound]”, the “stimulation of tritiated thymidine incorporation in PBMCs” value is recorded as “No stimulation”.
